Assay results: article PMC10724237, “Identification of 5-HT2A receptor signaling pathways associated with psychedelic potential” (Nature Communications, 2023)

Protein sequences, listed by entry. Tags and fused reporters are not part of them.
UniProt P28223, whole entry: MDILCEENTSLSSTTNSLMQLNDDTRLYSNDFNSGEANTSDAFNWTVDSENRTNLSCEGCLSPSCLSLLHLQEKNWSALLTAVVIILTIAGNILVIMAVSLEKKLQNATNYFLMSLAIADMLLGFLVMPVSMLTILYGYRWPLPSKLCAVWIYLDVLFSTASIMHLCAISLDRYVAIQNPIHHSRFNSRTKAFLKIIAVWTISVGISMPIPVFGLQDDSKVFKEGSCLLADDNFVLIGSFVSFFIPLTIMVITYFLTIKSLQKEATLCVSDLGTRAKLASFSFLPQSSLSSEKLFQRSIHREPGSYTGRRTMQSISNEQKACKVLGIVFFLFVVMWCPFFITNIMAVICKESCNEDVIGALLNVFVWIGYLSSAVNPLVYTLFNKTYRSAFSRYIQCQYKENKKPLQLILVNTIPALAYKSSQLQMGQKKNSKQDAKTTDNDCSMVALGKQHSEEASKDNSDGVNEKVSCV

Biological target: T1, 5-HT2A receptor (5-HT2AR) (Homo sapiens, UniProt P28223)
T1 construct: gene HTR2A; full-length receptor in HEK293T; co-expressed Galphaq-RLuc8/Gbeta1/Ggamma1-GFP2 for Gq dissociation; C-terminal RLuc8 fusion for beta-arrestin2 recruitment
Format: cell-based

## NCCc1c[nH]c2ccc(O)cc12 [5-HT]
  EC50: Comparison of 5-HT2A receptor Gq dissociation (red) and β-arrestin2 recruitment (blue) for 5-HT (D)
